Experimental data taken from patent US20100311717A1, “METHODS AND COMPOSITIONS FOR RETARDING WEIGHT GAIN ASSOCIATED WITH USE OF ATYPICAL ANTIPSYCHOTIC DRUGS” (priority 2007, published 2010).

Conditions: human, in vivo

In the case of `Cc1cc2c(s1)Nc1ccccc1N=C2N1CCN(C)CC1` [olanzapine], the weight gained is reported as 20-40 pounds.
